This passage reports Ki results from publication PMC3894748.

A word on the Ki: it is the equilibrium dissociation constant of an inhibitor or competing ligand from its target.

The target of the experiment is plasma membrane calcium pump (PMCA) (Homo sapiens) (UniProt P23634). Kind of experiment: Ca2+-ATPase activity inhibition.

Regarding F-actin (from UniProt P60709), the Ki is 670 nM.
